Data reported in US7179793B2, “Anti-hypertensive dietary supplement” (Ocean Nutrition Canada Limited, priority 2005, dated 2007).
“And” between values parts separate entries of the source, which are not always exact repeats. Equal entries are not always repeated.

Chains of the proteins cited; added tags and fusions are not shown. Residues count along the entry.
UniProt P12821, 30-1306, species assumed: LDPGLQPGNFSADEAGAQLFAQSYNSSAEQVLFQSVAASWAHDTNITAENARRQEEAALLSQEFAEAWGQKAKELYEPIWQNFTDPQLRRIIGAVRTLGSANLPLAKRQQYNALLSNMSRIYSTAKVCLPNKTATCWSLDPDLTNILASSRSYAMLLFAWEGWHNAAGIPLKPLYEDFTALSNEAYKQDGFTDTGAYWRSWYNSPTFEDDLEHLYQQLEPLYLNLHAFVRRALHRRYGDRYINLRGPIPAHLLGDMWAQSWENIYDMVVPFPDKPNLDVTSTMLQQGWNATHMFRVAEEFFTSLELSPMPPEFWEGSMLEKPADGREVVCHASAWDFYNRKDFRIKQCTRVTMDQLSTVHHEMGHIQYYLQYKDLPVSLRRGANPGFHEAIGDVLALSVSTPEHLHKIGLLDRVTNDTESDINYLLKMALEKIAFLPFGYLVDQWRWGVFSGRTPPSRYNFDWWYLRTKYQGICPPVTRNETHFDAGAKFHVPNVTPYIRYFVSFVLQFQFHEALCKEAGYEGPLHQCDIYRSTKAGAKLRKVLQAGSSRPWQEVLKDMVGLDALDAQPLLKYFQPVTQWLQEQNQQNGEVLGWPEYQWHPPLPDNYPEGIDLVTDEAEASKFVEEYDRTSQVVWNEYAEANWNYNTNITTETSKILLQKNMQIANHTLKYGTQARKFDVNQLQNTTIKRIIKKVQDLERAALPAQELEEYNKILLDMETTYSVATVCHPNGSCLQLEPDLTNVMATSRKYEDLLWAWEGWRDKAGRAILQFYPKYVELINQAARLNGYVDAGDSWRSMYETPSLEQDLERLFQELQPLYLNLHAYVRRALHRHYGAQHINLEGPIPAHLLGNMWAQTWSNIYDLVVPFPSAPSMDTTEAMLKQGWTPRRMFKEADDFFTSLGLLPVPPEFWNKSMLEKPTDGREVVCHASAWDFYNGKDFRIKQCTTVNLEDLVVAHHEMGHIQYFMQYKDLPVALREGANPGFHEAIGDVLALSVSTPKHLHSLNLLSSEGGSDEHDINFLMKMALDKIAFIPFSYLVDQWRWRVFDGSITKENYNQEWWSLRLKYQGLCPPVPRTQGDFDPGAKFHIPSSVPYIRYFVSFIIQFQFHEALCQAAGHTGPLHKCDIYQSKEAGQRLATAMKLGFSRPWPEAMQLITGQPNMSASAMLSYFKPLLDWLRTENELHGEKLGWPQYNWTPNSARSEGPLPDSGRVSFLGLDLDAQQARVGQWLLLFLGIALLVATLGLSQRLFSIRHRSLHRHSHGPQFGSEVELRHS

Target: angiotensin I-converting enzyme (ACE) (Homo sapiens, UniProt P12821)
Assay: In vitro ACE inhibitory activity (IC50), method of Holmquist et al.
Format: biochemical
Conditions: synthesized tripeptides identified in fraction C
Experimental: The activities after ethanol precipitation or ultrafiltration were 42.1 μg/mL and 41.1 μg/mL respectively.
Several ACE inhibitory peptides in the ultrafiltered salmon protein hydrolysate were identified. The ultrafiltered hydrolysate powder in water was applied on a gel filtration TSK-gel G300OPWXL column (7.8×300 mm, 6 μ, Tosoh). The column was eluted with 10% aqueous methanol at a flow rate of 0.8 mL/min. The elution was monitored by UV diode array detection collecting UV absorbance data from 192–450 nm. Individual fractions were lyophilized and their ACE inhibitory activities were measured.
This example compares the ACE inhibitory activity of salmon protein hydrolysates prepared using various proteases. Salmon frames were d in optimum hydrolysis conditions with various proteases by the process described in Example 1 and the ACE inhibitory activity of the hydrolysates was determined by the methods described in Example 1.

Compound | IC50
CC[C@H](C)[C@H](N)C(=O)N[C@@H](C)C(=O)N[C@@H](Cc1c[nH]c2ccccc12)C(=O)O [Ile-Ala-Trp] | 9.52 µM and 9.5 µM
CC[C@H](C)[C@H](N)C(=O)N[C@@H](C)C(=O)N[C@@H](Cc1ccc(O)cc1)C(=O)O [Ile-Ala-Tyr] | 157 µM and ~157 µM
CC[C@H](C)[C@H](N)C(=O)N[C@H](C(=O)N[C@@H](Cc1ccccc1)C(=O)O)[C@@H](C)CC [Ile-Ile-Phe] | 22.7 µM
CC(C)C[C@H](N)C(=O)N[C@@H](C)C(=O)N[C@@H](Cc1ccccc1)C(=O)O [Leu-Ala-Phe] | 39.2 µM
CC(C)C[C@H](N)C(=O)N[C@@H](C)C(=O)N[C@@H](Cc1ccc(O)cc1)C(=O)O [Leu-Ala-Tyr] | 90 µM and ~90 µM
CC(C)C[C@H](N)C(=O)N[C@H](C(=O)N[C@@H](Cc1ccccc1)C(=O)O)[C@@H](C)O [Leu-Thr-Phe] | 80.9 µM and ~80.9 µM
CC(C)C[C@H](NC(=O)[C@H](C)NC(=O)[C@@H](N)Cc1ccc(O)cc1)C(=O)O [Tyr-Ala-Leu] | 154 µM and ~154 µM
C[C@H](NC(=O)[C@@H](N)Cc1ccc(O)cc1)C(=O)N[C@@H](Cc1ccc(O)cc1)C(=O)O [Tyr-Ala-Tyr] | 31.8 µM
N=C(N)NCCC[C@H](NC(=O)[C@H](CC(N)=O)NC(=O)[C@@H](N)Cc1ccc(O)cc1)C(=O)O [Tyr-Asn-Arg] | 121 µM and ~121 µM
CC(C)C[C@H](NC(=O)[C@@H](N)C(C)C)C(=O)N[C@@H](Cc1c[nH]c2ccccc12)C(=O)O [Val-Leu-Trp] | 24 µM
CC(C)[C@H](N)C(=O)N[C@@H](Cc1ccccc1)C(=O)N[C@@H](Cc1ccc(O)cc1)C(=O)O [Val-Phe-Tyr] | 26 µM
